## scFv variants of Ab-91 (heavy chain) against a SARS-CoV-2 spike peptide

The measurements come from Engelhart et al. 2022 (doi:10.1038/s41597-022-01779-4) through the FLAb antibody collection.

Antigen: PDVDLGDISGINAS, a 14-residue peptide of the SARS-CoV-2 spike HR2 region.

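The starting antibody came from a phage panning campaign against this peptide. In library AAYL51, one, two or three CDR residues were substituted; doubles and triples were drawn at random. The scFvs were displayed on barcoded MATa yeast, the peptide on MATalpha yeast. After mating in shaken culture at 30 °C for 16 h, diploids were selected and their barcode pairs sequenced. The ratio of observed to expected reads was calibrated, replicate by replicate, on BCL2-family standards whose Kd was known from biolayer interferometry. The assay was run in three technical replicates.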

Each scFv is VL, a 15-residue (Gly4Ser)3 linker, VH, as in the parent Ab-91, and differs from it in the CDRs of the heavy chain only.
VL: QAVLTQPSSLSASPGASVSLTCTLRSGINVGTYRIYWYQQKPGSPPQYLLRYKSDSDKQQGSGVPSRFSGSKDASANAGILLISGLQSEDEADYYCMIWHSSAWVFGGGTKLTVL
VH: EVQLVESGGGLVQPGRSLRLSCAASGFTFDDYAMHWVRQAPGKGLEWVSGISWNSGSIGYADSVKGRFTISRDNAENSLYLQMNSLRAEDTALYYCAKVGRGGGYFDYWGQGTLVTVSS

Positions count from residue 1 of the parent VH; G56Y puts Y in place of G.
Numbers give log10(Kd / nM), so 0 is 1 nM and 3 is 1 µM. Smaller is tighter.
A mean of the replicates is given; it leaves out those without a signal.
An entry "n.d." has no value in the source: the pair was not observed among the diploids in that replicate. This suggests poor binding but is not conclusive.

changes,"replicates, log10 nM",mean log10 Kd (nM),signal with controls
G56Y/R101D,1.81 2.02 1.49,1.77,1 of 9 (4.16)
V64E/G102S/Y105M,n.d. n.d. 3.00,3.00,1 of 9 (3.48)
F27K/H35D/G59S,n.d. 6.03 n.d.,6.03,0 of 9
G26C/S52V/R101V,n.d. n.d. n.d.,n.d.,1 of 9 (4.40)
Y32I/V64K/G103K,n.d. n.d. n.d.,n.d.,0 of 9
Y32R/R101S,5.16 4.60 5.49,5.08,3 of 9 (4.59)
G26Q/F27P/D31A,n.d. n.d. n.d.,n.d.,1 of 9 (4.28)
Y32T/S52Y/Y108G,5.14 4.84 n.d.,4.99,8 of 9 (5.38)
Y32T/H35Q/S52K,n.d. n.d. n.d.,n.d.,2 of 9 (4.38)
D31W/N54D/S63Q,2.27 2.45 2.19,2.30,0 of 9
G50H/W53E/S57D,5.46 4.73 4.15,4.78,5 of 9 (4.63)
M34L/I58A/R101M,2.01 2.06 n.d.,2.03,0 of 9
W53V/R101G/G102F,1.84 1.79 1.55,1.73,6 of 9 (5.16)
K65D/V99D/G100R,4.85 4.27 n.d.,4.56,4 of 9 (4.70)
G103Y/G104L/D107E,1.39 1.31 1.02,1.24,1 of 9 (4.49)
W53P/G59D/K65D,3.70 5.36 5.00,4.68,3 of 9 (5.12)
S55M/Y60I/F106H,5.99 5.17 n.d.,5.58,6 of 9 (5.00)
F27G/G56F/G104M,5.35 n.d. n.d.,5.35,4 of 9 (4.20)
M34Y/S57T/Y105N,n.d. n.d. n.d.,n.d.,2 of 9 (4.61)
F29A/D30E/R101T,n.d. n.d. n.d.,n.d.,0 of 9
F29S/I58F/Y108V,5.21 n.d. 4.48,4.85,0 of 9
V64T/K65M,3.36 3.11 2.99,3.15,7 of 9 (4.33)
F27E/T28M/G102E,4.72 4.47 4.89,4.70,6 of 9 (4.60)
T28P/S52H/G103R,n.d. 4.55 n.d.,4.55,0 of 9
A33L/M34I/G102K,n.d. n.d. n.d.,n.d.,5 of 9 (4.38)
F27H/A33N/M34H,n.d. n.d. n.d.,n.d.,0 of 9
D30C/A33S/G103I,n.d. 5.66 n.d.,5.66,1 of 9 (4.24)
Y32L/G59V/V64N,n.d. n.d. n.d.,n.d.,0 of 9
W53N/D62R/S63Q,4.50 3.96 n.d.,4.23,3 of 9 (5.47)
D31V/G50N/G100E,4.50 n.d. n.d.,4.50,5 of 9 (4.77)
G56R/D107C,n.d. n.d. n.d.,n.d.,0 of 9
T28D/G50L/G104D,n.d. n.d. n.d.,n.d.,0 of 9
W53S/K65P,5.75 5.88 n.d.,5.81,4 of 9 (4.01)
I51W/S63K/V64L,n.d. n.d. n.d.,n.d.,0 of 9
D31W/H35K/D107A,4.63 6.52 n.d.,5.58,6 of 9 (4.91)
F29N/A33Y/Y108K,n.d. n.d. n.d.,n.d.,0 of 9
G26N/S52T/Y105W,4.44 5.55 5.21,5.07,7 of 9 (5.05)

A selection of 3 entries from above:

changes,"replicates, log10 nM",mean log10 Kd (nM),signal with controls
K65D/V99D/G100R,4.85 4.27 n.d.,4.56,4 of 9 (4.70)
V64T/K65M,3.36 3.11 2.99,3.15,7 of 9 (4.33)
F29N/A33Y/Y108K,n.d. n.d. n.d.,n.d.,0 of 9

Parent in this assay: reference entry 1.86, copy in this library 0.88.
Three control strains display no target. For library AAYL51, 21% of the pairings with them gave a signal, with a median of 4.54 and one signal in twenty below 3.26, so weak values seen in few replicates may be background. The control count says in how many pairings with the empty strains this scFv gave a signal, with their mean in brackets.